{"source": "patent US20210275547A1", "about": "“Methods of Modulating Activity of a Cyclic Dinucleotide (CDN) with a CDN Transporter-Modulating Agent” (THE REGENTS OF THE UNIVERSITY OF CALIFORNIA, priority 2018, published 2021)", "key": {"[1]": {"system": "THP-1 cells expressing an ISRE-driven tdTomato reporter", "assay": "ISRE-tdTomato reporter induction in THP-1 cells on stimulation", "assay_type": "cell-based, human", "conditions": "synthetic CDN 1.7 μg/ml for 20 h", "text": "To identify genes encoding molecules involved in this process, a reporter system was created to detect STING activation in response to extracellular CDNs, in order to perform a genetic screen. The reporter was composed of an Interferon Stimulatory Response Element (ISRE) cassette driving the expression of the fluorescent protein tdTomato. The reporter system was expressed in the human monocytic cell line THP-1 to confirm that the tdTomato reporter was induced in response to stimulation with human interferon-beta (hIFNβ) or a synthetic CDN (FIG. 1A). Subsequently, THP-1 cells containing the reporter were transduced with a genome-wide library of guide RNAs (gRNAs), which suppress expression of target genes. The library targeted 20,000 genes within the human genome. The gRNA library-expressing THP-1 cells were stimulated with synthetic CDN, and the cells were subsequently sorted into two populations based on either low (hyporesponsive) or high (hyper-responsive) levels of tdTomato reporter expression. These populations were sequenced to reveal the RNA targets. As expected, gRNAs targeting components of the STING pathway, including IRF3 and STING itself, were enriched in the hyporesponsive cells and depleted in the hyper-responsive cells, corroborating the success of the screening procedure. Other “hits” in the screen were examined for their role in CDN transport."}, "SLC19A1": {"target": "T1, SLC19A1 (Homo sapiens, UniProt P41440)", "T1 sequence (P41440 1-591)": "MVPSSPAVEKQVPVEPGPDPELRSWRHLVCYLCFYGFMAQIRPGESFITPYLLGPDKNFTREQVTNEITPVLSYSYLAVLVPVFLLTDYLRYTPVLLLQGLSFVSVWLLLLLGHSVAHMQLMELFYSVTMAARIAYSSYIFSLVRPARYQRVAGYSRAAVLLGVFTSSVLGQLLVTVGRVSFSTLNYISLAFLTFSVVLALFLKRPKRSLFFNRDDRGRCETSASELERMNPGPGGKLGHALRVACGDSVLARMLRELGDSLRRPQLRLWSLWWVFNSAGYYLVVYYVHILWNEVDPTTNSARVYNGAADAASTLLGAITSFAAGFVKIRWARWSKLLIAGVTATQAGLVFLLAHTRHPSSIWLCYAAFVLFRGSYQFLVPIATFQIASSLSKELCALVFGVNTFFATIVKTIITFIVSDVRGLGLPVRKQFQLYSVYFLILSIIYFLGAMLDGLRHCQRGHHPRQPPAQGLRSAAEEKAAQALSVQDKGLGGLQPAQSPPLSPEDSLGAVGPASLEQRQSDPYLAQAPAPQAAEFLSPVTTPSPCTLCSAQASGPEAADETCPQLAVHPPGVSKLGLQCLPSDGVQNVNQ", "assay": "Reporter response to CDNs in THP-1 cells with SLC19A1 knocked down or overexpressed", "conditions": "SLC19A1 knockdown vs control, synthetic CDN 1.7 μg/ml, hIFNβ 100 ng/ml, 20 h"}}}
{"substance": "hIFNβ: human interferon-beta used as control stimulant", "values": [{"measurement": "tdTomato reporter expression upon stimulation", "setting": "[1]", "value": "induced"}, {"measurement": "effect of knocking down SLC19A1 expression on the response to the stimulant", "setting": "SLC19A1", "value": "no effect"}]}
